Blank lines part the entries; values can stand above or below the substance they belong to.
Columns and labels:
[1] = target: HLA-DP DPB1*0301 (human); assay: inhibition of radiolabeled peptide binding to purified HLA-DP
[2] = target: HLA-DP DPB1*0201 (human); assay: as above
[3] = target: HLA DP molecule DPB1*0301 (human); assay: inhibition of radiolabeled peptide binding to purified HLA DP
[4] = target: HLA-DP DPB1*1401 (human); assay: inhibition of radiolabeled peptide binding to purified HLA-DP
[5] = target: HLA-DP DPB1*0101 (human); assay: as above
[6] = target: HLA-DP DPB1*2001 (human); assay: as above
[7] = target: HLA-DP DPB1*0501 (human); assay: as above
[8] = target: HLA-DP DPB1*0402 (human); assay: as above
[9] = target: HLA-DR DRB1*0162 (so in the source) (human); assay: inhibition of radiolabeled peptide binding to purified HLA class II
[10] = target: HLA-DP molecule DPB1*0301 (human); assay: inhibition of radiolabeled peptide binding to purified HLA-DP
[11] = target: HLA-DR molecule DRB1*0162 (so in the source) (human); assay: inhibition of radiolabeled peptide binding to purified HLA class II
[12] = target: HLA DP molecule DPB1*0402 (human); assay: competition vs radiolabeled peptide, purified HLA-DP
[13] = target: HLA DP molecule DPB1*0301 (human); assay: as above

IC50 [1]: 1410 nM
IC50 [2]: 80 nM
Substance: Lol p 11 peptide 116-130 … (Peptide ID 3337.0029)

IC50 [1]: 0.039 nM
Substance: Bet v 6 (206-220) peptide 3324.0387

IC50 [1]: 7020 nM
IC50 [2]: 18 nM
Substance: Cup s 1 peptide 96-110 … (Peptide ID 3324.0624)

IC50 [9]: 2470 nM
Substance: Fel d 1 2 peptide 36-50, Peptide ID 3324.1055

IC50 [1]: 24 nM
Substance: Der p 4 (476-490) peptide 3324.0975

IC50 [9]: 110 nM
Substance: Der p 1 peptide 136-150, Peptide ID 3324.0829

IC50 [10]: 6240 nM
Substance: Lol p 3 peptide, position 51, … (Peptide ID 3337.0031)

IC50 [1]: 12300 nM
Substance: Bet v 1 (111-125) peptide 3324.0352

IC50 [9]: 555 nM
Substance: Fel d 1 2 peptide 26-40, Peptide ID 3324.1052

IC50 [13]: 107 nM
Substance: Alt a 7 peptide, position 6, … (Peptide ID 3324.0085)

IC50 [1]: 1600 nM
IC50 [2]: 1200 nM
Substance: Cup a 1 peptide 66-80 … (Peptide ID 3324.0604)

IC50 [2]: 9540 nM
Substance: Lol p 2 peptide 56-70 … (Peptide ID 3324.1140)

IC50 [5]: 388 nM
IC50 [7]: 54 nM
Substance: Aln g 1 (16-30) peptide 3324.0003

IC50 [1]: 3070 nM
IC50 [2]: 672 nM
Substance: Dac g 2 peptide 11-25 … (Peptide ID 3324.0657)

IC50 [1]: 988 nM
Substance: Der p 4 (321-335) peptide 3324.0977

IC50 [1]: 286 nM
Substance: Der p 4 (482-496) peptide 3324.0971

Continued, substance first:

Substance: Cup a 1 peptide 316-330 … (Peptide ID 3324.0606)
IC50 [1]: 39600 nM

Substance: Que a 1 peptide 141-155 … (Peptide ID 3324.1584)
IC50 [1]: 133 nM
IC50 [2]: 46 nM

Substance: Alt a 1 peptide, position 116 (Peptide ID 3324.0014)
IC50 [3]: 241 nM

Substance: Cha o 1 (86-100) peptide 3324.0517
IC50 [1]: 3.1 nM

Substance: Dac g 2 peptide 16-30 … (Peptide ID 3324.0658)
IC50 [1]: 18000 nM
IC50 [2]: 2430 nM

Substance: Poa p 5 peptide 221-235, … (Peptide ID 3324.1564)
IC50 [4]: 2000 nM
IC50 [1]: 7.6 nM
IC50 [5]: 3570 nM
IC50 [6]: 84 nM
IC50 [7]: 891 nM
IC50 [8]: 5200 nM

Substance: Pha a 1 peptide, position 186, … (Peptide ID 3324.1428)
IC50 [10]: 8500 nM

Substance: Cha o 1 peptide, position 211 (Peptide ID 3324.0521)
IC50 [11]: 660 nM

Substance: Der f 1 peptide 131-145, Peptide ID 3324.0670
IC50 [9]: 501 nM

Substance: Der p 4 peptide 386-400, Peptide ID 3324.0978
IC50 [9]: 75 nM

Substance: Cla h 8 peptide, position 151, … (Peptide ID 3324.0603)
IC50 [12]: 10700 nM

Substance: Alt a 1 peptide, position 143 (Peptide ID 3324.0016)
IC50 [3]: 1120 nM

Substance: Der p 4 (86-100) peptide 3324.0981
IC50 [4]: 1320 nM
IC50 [1]: 2.5 nM
IC50 [7]: 1600 nM

Substance: Poa p 5 peptide, position 61, … (Peptide ID 3324.1575)
IC50 [10]: 39 nM

Substance: Lol p 11 peptide 111-125 … (Peptide ID 3324.1138)
IC50 [1]: 764 nM
IC50 [2]: 110 nM

Substance: Lol p 5 1 peptide, position 71, … (Peptide ID 3324.1175)
IC50 [10]: 339 nM

Substance: Poa p 5 peptide 211-225, … (Peptide ID 3324.1579)
IC50 [4]: 485 nM
IC50 [6]: 352 nM

Substance: Asp f 17 peptide, position 91, … (Peptide ID 3324.0212)
IC50 [12]: 50000 nM

Substance: Alt a 1 peptide, position 6 (Peptide ID 3324.0015)
IC50 [3]: 61 nM

Substance: Dac g 1 peptide 181-195 … (Peptide ID 3324.0655)
IC50 [4]: 7750 nM
IC50 [1]: 50000 nM
IC50 [6]: 12300 nM
IC50 [2]: 279 nM
IC50 [7]: 500 nM

Substance: Alt a 1 peptide, position 11 (Peptide ID 3324.0017)
IC50 [3]: 71 nM

Substance: Der p 4 (386-400) peptide 3324.0978
IC50 [1]: 4120 nM

Substance: Bet v 1 (96-110) peptide 3324.0353
IC50 [1]: 5610 nM

Reference: patent publication US20150004189A1
